From patent US20250049946A1, “SULFONATO RESORCINARENE-COMPLEXED FLUOROQUINOLONES AND METHODS OF USE” (University of Cincinnati, priority 2023, published 2025)

Assay: partition coefficient (Ko/w) n-octanol / phosphate buffer
Type: physicochemical
Conditions: octanol / phosphate buffer pH 7.4, 25 °C, 24 h; complexes with 10 times higher host stock

log P (experimental partition coefficient Ko/w): −2.07
Structure (SMILES): CCn1cc(C(=O)O)c(=O)c2cc(F)c(N3CCNCC3)cc21 [NOR, norfloxacin]
